Assay results reported in patent US7094575B2 (priority 1999, dated 2006).

Test: Mouse paw oedema after inhibitor alone
Conditions: Table 9; 100 μg alone; mean ± SD (n = 4)

SMILES: CC(C)C[C@H](NC(=O)[C@@H]1CCCN1C(=O)[C@H](CC(C)C)NC(=O)CNC(=O)[C@@H]1CCCN1C(=O)[C@H](CC(C)C)NC(=O)[C@@H]1CCCN1)C(=O)N[C@@H](CO)C(=O)N[C@@H](CCCCN)C(=O)N1CCC[C@H]1C(=O)O [P-0009]
- Oedema (mg), inhibitor alone: 17 ± 6 mg
